Reference: US6239146A, “Neurotrophic difluoroamide agents” (Bristol-Myers Squibb Company, priority 2000, dated 2001)

Sequences of proteins named here, by UniProt entry; tags and fusion partners are left off.
UniProt P62942, whole entry, species assumed: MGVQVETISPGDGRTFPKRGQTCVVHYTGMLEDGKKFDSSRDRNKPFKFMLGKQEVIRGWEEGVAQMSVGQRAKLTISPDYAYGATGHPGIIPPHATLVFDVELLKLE

Target: FKBP12 (Homo sapiens, UniProt P62942)
Assay: FKBP12 Rotamase Inhibition Assay
Format: biochemical
Details: read-out: Percent Inhibition at 10 μM (rotamase)

Q: `COc1cc(C(F)(F)C(=O)N2CCC[C@H]2C(=O)OCCCc2cccnc2)cc(OC)c1OC` [Example 2] was tested. Which inhibition at 10 µM did it give?
A: Its inhibition at 10 µM is 97%.
